Earlier results, collected in patent US10010502B2, “Device that delivers a sustained low-dose of a myopia-suppressing drug, while preserving pupillary function and accommodation” (AMORPHEX THERAPEUTICS LLC, priority 2015, dated 2018).

Test system: myopia progression
Conditions: in vivo

## CCCN1CCC[C@@H]2Cc3n[nH]cc3C[C@H]21 [quinpirole]
  myopia progression in animal models: retard myopia progression
